In PubChem BioAssay AID652154 (Broad Institute, 2013):
Only a part is listed here, and it is no random draw. Active and inactive are the calls of the source.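 How the source made its calls: active means mean replicate inhibition at least 60% with every replicate also reaching 60%; inconclusive means only one of the two criteria is met; inactive means mean below 60% and not all replicates reaching 60%.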

Assay: PAX8 transcriptional activity inhibition in RMG-I – RMG-I cells, luciferase, single concentration, primary screen (AID 652154);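 further: luciferase light reporting Pax8 driven TPO promoter activity; plate controls were median of neutral control wells for no effect and mitoxantrone controls for full effect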
Conditions: RMG-I TPO-luciferase reporter, SteadyGlo, 24 h; at 12.6 µM; hits give high values

| Structure (SMILES) | inhibition |
| --- | --- |
| Cc1cc(C)cc(OP(C)(=O)Nc2ccc(SC(F)(F)F)cc2)c1 (stereo unspecified) | inactive: 21.1% |
